Test results from PubChem BioAssay AID639 (Emory University Molecular Libraries Screening Center, 2007).
Only a part is listed here, and it is no random draw. Some of these compounds have results that are not shown, active ones among them. The source made the active and inactive calls. Rule as the data show it: active = activity above about 200%; inactive = the rest.

Amino acid sequences for entries named in this document (tags omitted).
UniProt P03372, whole entry: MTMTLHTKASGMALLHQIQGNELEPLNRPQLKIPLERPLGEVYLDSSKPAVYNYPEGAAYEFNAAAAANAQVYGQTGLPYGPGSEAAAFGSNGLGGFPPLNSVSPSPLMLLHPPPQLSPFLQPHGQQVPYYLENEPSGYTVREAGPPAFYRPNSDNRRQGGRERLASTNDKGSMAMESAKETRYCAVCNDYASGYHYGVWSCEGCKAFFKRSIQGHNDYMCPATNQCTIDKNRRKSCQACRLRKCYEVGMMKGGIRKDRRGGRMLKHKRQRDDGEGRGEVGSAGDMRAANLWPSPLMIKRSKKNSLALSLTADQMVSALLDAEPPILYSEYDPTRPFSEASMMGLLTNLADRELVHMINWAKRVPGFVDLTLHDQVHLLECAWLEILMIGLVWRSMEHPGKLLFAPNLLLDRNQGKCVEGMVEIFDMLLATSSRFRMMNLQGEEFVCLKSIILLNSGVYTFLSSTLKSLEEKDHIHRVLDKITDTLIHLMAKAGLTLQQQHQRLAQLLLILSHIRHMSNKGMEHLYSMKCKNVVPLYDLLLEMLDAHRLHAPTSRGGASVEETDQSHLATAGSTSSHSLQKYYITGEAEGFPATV

Each compound was assayed against Estrogen receptor (Homo sapiens) (UniProt P03372) (assay: enhancers of ERα–SRC-1 coactivator binding, primary screen, biochemical, TR-FRET, ERα LBD, low estradiol (AID 639;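 also: binding measured in presence of low estradiol as agonist stimulus; 0% = peptide alone without receptor and 100% = receptor with peptide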)). Conditions: TR-FRET ERalpha-LBD/SRC-Cy5 coactivator binding, 2 h; at 25.6 µM; active compounds read high; 100 = basal binding, no effect.

SMILES	coactivator binding (% of control)
CN(C)c1cccc(C(=O)NCC2(N(C)C)CCCCC2)c1	inactive: 107%
O=C(OC1CN2CCC1CC2)C(CO)(c1ccccc1)c1ccccc1 (configuration not stated)	inactive: 121%
